# Data published in patent US11046680B1, “Heteroaryl-substituted triazoles as APJ receptor agonists” (priority 2016, dated 2021).
# Chains of the proteins cited; added tags and fusions are not shown.
# UniProt P35414, whole entry: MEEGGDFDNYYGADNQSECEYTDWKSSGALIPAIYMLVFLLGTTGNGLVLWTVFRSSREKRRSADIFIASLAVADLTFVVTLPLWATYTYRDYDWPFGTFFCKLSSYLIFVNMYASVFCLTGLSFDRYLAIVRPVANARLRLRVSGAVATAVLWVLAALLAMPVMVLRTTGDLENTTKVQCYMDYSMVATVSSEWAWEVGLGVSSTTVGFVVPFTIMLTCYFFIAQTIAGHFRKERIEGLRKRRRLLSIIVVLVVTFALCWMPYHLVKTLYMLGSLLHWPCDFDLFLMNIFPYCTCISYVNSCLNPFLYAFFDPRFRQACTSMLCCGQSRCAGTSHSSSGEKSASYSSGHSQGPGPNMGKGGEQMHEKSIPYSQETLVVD
# Target: human APJ receptor (Homo sapiens (Human), UniProt P35414)
# Conditions: read-out: Activity hAPJ SPA EC50 IP; [35S]GTPγS binding, CHO membranes expressing human APJ receptor
smiles,measurement,value
COCC(COC)n1c(NS(=O)(=O)[C@@H](C)[C@H](OC)c2ncc(Cl)cn2)nnc1-c1ccn(C)n1,EC50,16 nM
